Assay results taken from paper PMC5777259.

Key:
[1] = target: double-headed NM-2B–HMM construct (heavy chain amino acids 1–1344 with MYL6 and MYL12b light chains) (human) (UniProt P35580)
[2] = target: Tpm1.8-enveloped filamentous β-actin (human | rat) (UniProt P60709)
[3] = target: Tpm1.12-enveloped filamentous β-actin (human | rat) (UniProt P60709); assay: stopped-flow light scattering; 4 μM NM-2B0 mixed with 0.5–4 μM bare actin or actin-Tpm complex, light scattering at 405 nm; 20 °C; 20 mM MOPS pH 7.0, 100 mM KCl, 5 mM MgCl2; no nucleotide; k+A from the slope, k−A from the y intercept, KA = k−A/k+A
[4] = target: Tpm1.8-enveloped filamentous β-actin (human | rat) (UniProt P60709); assay: as above
[5] = target: Tpm3.1-enveloped filamentous β-actin (human) (UniProt P60709); assay: as above
[6] = target: filamentous β-actin (human) (UniProt P60709); assay: as above

Tpm3.1-enveloped filamentous β-actin (from UniProt P60709 1-375; P06753-2 1-248) (complex)
Kapp, actin concentration required for half-maximal activation of the steady-state ATPase of NM-2B–HMM (0–50 μM actin, 3-fold molar excess of Tpm, 25 °C) [1]: 30.1 µM
n, landing assay (fit of landing rate against NM-2B–HMM surface density) [1]: 1

double-headed NM-2B–HMM construct (heavy chain amino acids 1–1344 with MYL6 and MYL12b light chains) (from UniProt P35580 1-1344; P60660 1-151; O14950 1-172) (complex)
average run length of Qdot-labelled NM-2B–HMM in the single-molecule TIRF motility assay [2]: 650 nm

single-headed construct NM-2B0 (motor domain of human NM-2B0, residues 1–782, two Dictyostelium discoideum α-actinin repeats, C-terminal octahistidine tag) (from UniProt P35580 1-782) (domain or fragment)
koff [3]: 0.02 s⁻¹
kon [3]: 250000 M⁻¹ s⁻¹
Kd [4]: 60 nM
koff [4]: 0.03 s⁻¹
kon [4]: 510000 M⁻¹ s⁻¹
koff [5]: 0.015 s⁻¹
kon [5]: 490000 M⁻¹ s⁻¹
Kd [6]: 60 nM
koff [6]: 0.02 s⁻¹
kon [6]: 320000 M⁻¹ s⁻¹

filamentous β-actin (from UniProt P60709 1-375) (natural protein)
Kapp, actin concentration required for half-maximal activation of the steady-state ATPase of NM-2B–HMM (0–50 μM actin, 25 °C) [1]: 47.5 µM
n, landing assay (fit of landing rate against NM-2B–HMM surface density) [1]: 5

Tpm1.12-enveloped filamentous β-actin (from UniProt P60709 1-375; P04692-5 1-245) (complex)
Kapp, actin concentration required for half-maximal activation of the steady-state ATPase of NM-2B–HMM (0–50 μM actin, 3-fold molar excess of Tpm, 25 °C) [1]: 12.2 µM
n, landing assay (fit of landing rate against NM-2B–HMM surface density) [1]: 1.5
